In patent US7792665B2, “Method for designing a compound based on the three dimensional structure of phosphoinositide dependent protein kinase 1 (PDK1)” (Medical Research Council, priority 2002, dated 2010):

Target: PHOS.KINASE (Oryctolagus cuniculus, UniProt P00518)
Assay: Kinase panel assay, phosphorylase kinase
Format: biochemical
Settings: 1 μM inhibitor, 0.1 mM ATP, average of triplicate

`CN[C@@H]1C[C@H]2O[C@@](C)([C@@H]1OC)n1c3ccccc3c3c4c(c5c6ccccc6n2c5c31)C(=O)NC4` [STO, staurosporine] was tested, and the “percentage of kinase activity compared to control incubations, PHOS.KINASE” value was 2 ± 3%.
